This assay concerns the target PI3Kalpha (Homo sapiens (Human), UniProt P42336). To be noted: read-out: IC50 PI3K.

Amino acid sequences for entries named in this document (tags omitted).
UniProt P42336, whole entry, looked up: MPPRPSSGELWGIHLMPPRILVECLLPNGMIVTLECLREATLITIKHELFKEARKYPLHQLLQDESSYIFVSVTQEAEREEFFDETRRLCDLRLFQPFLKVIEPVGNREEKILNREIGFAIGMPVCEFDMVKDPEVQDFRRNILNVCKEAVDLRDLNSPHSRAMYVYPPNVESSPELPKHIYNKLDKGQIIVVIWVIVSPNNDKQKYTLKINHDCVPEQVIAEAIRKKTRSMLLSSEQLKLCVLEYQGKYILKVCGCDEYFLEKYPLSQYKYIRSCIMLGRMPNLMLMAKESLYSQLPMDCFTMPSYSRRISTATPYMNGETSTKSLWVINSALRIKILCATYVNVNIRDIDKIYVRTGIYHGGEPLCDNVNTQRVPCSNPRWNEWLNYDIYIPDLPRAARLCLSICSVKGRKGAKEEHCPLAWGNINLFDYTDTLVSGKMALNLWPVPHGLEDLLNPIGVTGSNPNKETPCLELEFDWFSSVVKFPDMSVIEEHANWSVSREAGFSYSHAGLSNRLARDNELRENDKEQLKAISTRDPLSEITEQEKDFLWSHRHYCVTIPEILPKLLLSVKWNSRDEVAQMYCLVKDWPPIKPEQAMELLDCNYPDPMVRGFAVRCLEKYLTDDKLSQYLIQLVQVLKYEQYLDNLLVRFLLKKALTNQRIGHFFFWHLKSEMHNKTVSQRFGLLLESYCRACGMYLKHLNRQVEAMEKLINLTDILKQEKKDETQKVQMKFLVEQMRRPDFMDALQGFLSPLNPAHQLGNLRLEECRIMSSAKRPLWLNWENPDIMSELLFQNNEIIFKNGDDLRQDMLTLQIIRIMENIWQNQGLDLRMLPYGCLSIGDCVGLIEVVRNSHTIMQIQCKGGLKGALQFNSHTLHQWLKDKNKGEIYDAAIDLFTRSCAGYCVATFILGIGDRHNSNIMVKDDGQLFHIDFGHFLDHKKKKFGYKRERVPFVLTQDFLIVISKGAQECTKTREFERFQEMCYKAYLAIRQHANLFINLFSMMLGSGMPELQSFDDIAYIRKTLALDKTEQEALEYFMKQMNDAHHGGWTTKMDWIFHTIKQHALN

In the case of `CCc1ncnc(-c2ccc(C(=O)N3CCC(C)(O)CC3)c(C)c2)c1C#Cc1ccc(N)nc1` [Example E-122], the IC50 came to 62.8 nM. The figure for `CCc1ncnc(-c2ccc(C(=O)N3CCC(N(C)C)C3)c(C)c2)c1C#Cc1ccc(N)nc1` (stereo not shown) [Example E-125] is 161 nM; for `CCc1ncnc(-c2ccc(C(=O)N3CCC(N4CCCC4)CC3)c(C)c2)c1C#Cc1ccc(N)nc1` [Example E-126] it is 195 nM. The result for `CCc1ncnc(-c2cc(F)c(C(=O)N3CCN(CCNS(C)(=O)=O)CC3)c(F)c2)c1C#Cc1ccc(N)nc1` [Example E-152] reads 67.8 nM; that for `CCc1ncnc(-c2cc(F)c(C(=O)N3CCn4ccnc4C3)c(Cl)c2)c1C#Cc1ccc(N)nc1` [Example E-155], 15.5 nM. For the molecule `CCc1ncnc(-c2cc(F)c(C(=O)N(C)CCN(C)C)c(F)c2)c1C#Cc1ccc(N)nc1` [Example E-171], the 50% inhibitory concentration (IC50) was found to be 358 nM.

For `CCc1ncnc(-c2cc(F)c(C(=O)N3CCC(F)(F)CC3)c(F)c2)c1C#Cc1ccc(N)nc1` [Example E-173], the IC50 was 164 nM.
